The list shows a part of the results, in another mix than the full data. Active and inactive are the calls of the source.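 The calls were made as follows: active = activation above the mean over all tested compounds plus 3 SD (cut at about 0.9% in these data); inactive = the rest.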
Tested on: Nuclear hormone receptor DAF-12 (Strongyloides stercoralis)
Experiment: ssDAF-12 driven luciferase reporter activation – cell-based, luminescence, HEK293, GRIP1 co-expression, lit1-tk-luc, primary screen (AID 652126);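 also: 0% = DMSO-only wells and 100% = 3 µM delta7-dafachronic acid wells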
Details: HEK293 ssDAF-12/GRIP1 lit1-tk-luc reporter, at 6.8 µM, stronger effect = higher value, % of 3 µM dafachronic acid response

Row | SMILES | activation
1 | CCC(=O)N(c1ccccc1)C1(COC)CCN(CCc2cccs2)CC1 | inactive: -1.12%
2 | CCC(=O)N(c1ccccc1)C1(COC)CCN(CCn2nnn(CC)c2=O)CC1 | inactive: -0.92%
